Literature values in patent US20260028374A1, “EPIDERMAL GROWTH FACTOR RECEPTOR INHIBITORS” (FILAMON LTD, priority 2023, published 2026).

What was measured:
[1] = test system: HCT116; conditions: HCT116, KRAS - G13D; cited from earlier work
[2] = test system: SW48; conditions: SW48, Wild type KRAS/BRAF; cited from earlier work
[3] = test system: SW48G12V; conditions: Isogeneic Hetrozygous KRAS mutant; cited from earlier work
[4] = test system: HT29; conditions: HT29, EGFR - Wild type, high expression BRAF - 600E; cited from earlier work
[5] = test system: RKO; conditions: EGFR- Wild type, low expression BRAF - 600E; cited from earlier work

In the case of “Cetuximab: anti-EGFR monoclonal antibody”, the Resistance [1] is given as “resistant^b”, the Resistance [2] is given as “Sensitive to” and the Resistance [3] is given as “Resistant to”. The Resistance [4] was “resistant^b” and the Resistance [5] was “resistant^c”.
